Our source for the IC50 values is patent publication US20110112110A1, “ANTIPROLIFERATIVE COMPOUNDS AND THERAPEUTIC USES THEREOF” (UNIVERSITA' DEGLISTUDI DI MILANO- BICOCCA, priority 2008, published 2011).

Protein sequences, listed by entry. Tags and fused reporters are not part of them. Residues count along the entry.
UniProt Q9UM73, 19-1620 limits assumed: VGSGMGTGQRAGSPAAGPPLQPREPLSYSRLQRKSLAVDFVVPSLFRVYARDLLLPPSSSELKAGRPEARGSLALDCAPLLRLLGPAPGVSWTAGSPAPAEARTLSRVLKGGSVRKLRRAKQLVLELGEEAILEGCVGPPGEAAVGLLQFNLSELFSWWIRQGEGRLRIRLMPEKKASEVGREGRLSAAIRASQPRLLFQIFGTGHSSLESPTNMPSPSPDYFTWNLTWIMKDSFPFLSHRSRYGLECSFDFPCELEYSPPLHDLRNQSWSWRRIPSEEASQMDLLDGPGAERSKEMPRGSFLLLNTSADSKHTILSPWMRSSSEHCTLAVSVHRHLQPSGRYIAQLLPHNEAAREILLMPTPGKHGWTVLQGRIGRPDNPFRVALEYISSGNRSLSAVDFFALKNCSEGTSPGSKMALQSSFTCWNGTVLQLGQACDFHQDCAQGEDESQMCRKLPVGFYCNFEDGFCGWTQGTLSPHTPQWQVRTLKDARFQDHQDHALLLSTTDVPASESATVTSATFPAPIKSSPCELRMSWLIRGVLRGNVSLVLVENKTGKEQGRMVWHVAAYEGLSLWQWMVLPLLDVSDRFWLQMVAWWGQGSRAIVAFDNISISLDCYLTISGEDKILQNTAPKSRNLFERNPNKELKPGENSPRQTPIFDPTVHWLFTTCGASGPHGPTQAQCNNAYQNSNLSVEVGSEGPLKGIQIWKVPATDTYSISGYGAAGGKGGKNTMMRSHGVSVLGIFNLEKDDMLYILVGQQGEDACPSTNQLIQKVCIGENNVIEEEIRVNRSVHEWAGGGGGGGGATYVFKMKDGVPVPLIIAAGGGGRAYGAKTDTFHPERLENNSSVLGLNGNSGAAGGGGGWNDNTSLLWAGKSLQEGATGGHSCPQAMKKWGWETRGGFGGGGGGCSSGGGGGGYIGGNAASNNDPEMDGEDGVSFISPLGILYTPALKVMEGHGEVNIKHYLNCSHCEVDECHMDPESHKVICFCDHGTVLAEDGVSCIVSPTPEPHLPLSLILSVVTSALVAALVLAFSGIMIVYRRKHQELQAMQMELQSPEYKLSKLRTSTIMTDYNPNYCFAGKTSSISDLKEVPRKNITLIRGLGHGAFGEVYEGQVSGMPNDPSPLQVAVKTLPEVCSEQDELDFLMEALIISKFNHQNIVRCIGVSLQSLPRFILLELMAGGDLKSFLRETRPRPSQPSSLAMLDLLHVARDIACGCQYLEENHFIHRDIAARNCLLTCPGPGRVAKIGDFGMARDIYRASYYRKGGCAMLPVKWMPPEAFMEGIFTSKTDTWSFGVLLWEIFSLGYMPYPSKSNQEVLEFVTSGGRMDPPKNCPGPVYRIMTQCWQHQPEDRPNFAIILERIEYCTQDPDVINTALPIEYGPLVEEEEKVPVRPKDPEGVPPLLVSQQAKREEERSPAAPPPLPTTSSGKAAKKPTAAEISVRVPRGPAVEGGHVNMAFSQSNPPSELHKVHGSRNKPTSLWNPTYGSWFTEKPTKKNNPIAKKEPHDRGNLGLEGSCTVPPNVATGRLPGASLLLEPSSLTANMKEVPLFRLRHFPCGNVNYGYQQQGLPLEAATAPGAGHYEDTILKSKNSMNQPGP

This experiment concerns the target Recombinant ALK kinase (Homo sapiens, UniProt Q9UM73). Description: ELISA-based in vitro kinase assay (ALK kinase inhibitory activity). Conditions: read-out: IC50 values on ALK; purified rALK, 0.3 mM ATP, ALK peptide substrate, 30° C. 15 minutes. (An ELISA detects its analyte on a solid surface through an enzyme-linked reagent.)

The term IC50 denotes the concentration that inhibits the measured activity by half. On to `O=C(O)c1ccc(-c2ccc(-c3ccco3)c(Cl)c2)cc1`, for which the IC50 is 9.6 µM.
